Here are results for 1 compound from ChEMBL document CHEMBL1156601, “Aminomethylpiperazines as selective urotensin antagonists” (Bioorg Med Chem Lett, 2008).

Protein sequences, listed by entry. Tags and fused reporters are not part of them. Lines headed by an entry give the natural chain unless they say otherwise; changes in a name come on top.
UniProt P41145: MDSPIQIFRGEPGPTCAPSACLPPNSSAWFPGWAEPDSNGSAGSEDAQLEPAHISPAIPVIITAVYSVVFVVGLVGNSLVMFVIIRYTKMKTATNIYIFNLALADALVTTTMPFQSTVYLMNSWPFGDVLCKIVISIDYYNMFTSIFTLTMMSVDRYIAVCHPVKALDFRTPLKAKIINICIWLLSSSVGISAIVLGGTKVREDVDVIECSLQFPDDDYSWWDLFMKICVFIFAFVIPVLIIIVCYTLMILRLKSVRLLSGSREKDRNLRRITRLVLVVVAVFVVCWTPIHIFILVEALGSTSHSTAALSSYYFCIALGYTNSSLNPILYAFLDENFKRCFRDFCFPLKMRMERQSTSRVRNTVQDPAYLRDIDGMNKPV

Broadly, the EC50 is the concentration at which the effect is half-maximal.

The test deals with Kappa-type opioid receptor (Homo sapiens, UniProt P41145). Description: Agonist activity at human kappa opioid receptor expressed in CHO-K1 cells by [35S]GTPgamma binding assay.

The compound `O=C(Cn1c(C(F)(F)F)nc2ccccc21)N1CCN(c2ccccc2)CC1CN1CCCC1` (stereo unspecified) had an EC50 of 4 nM.
